Source: patent US11208497B2, “Antibodies comprising C-terminal light chain polypeptide extensions and conjugates and methods of use thereof” (ZYMEWORKS INC., priority 2013, dated 2021)

Assay: Native (non-denaturing) size exclusion chromatography of antibodies
Format: physicochemical
Details: non-denaturing SEC, unconjugated antibody

In the case of “trastuzumab: parental anti-HER2 antibody (4D5 humanized variant 8), control”, the “protein sample in the monomeric state” value is reported as 99.36%.
